From patent publication US7229964B2, “Insulin derivatives” (Novo Nordisk A/S, priority 1995, dated 2007)

Test: Lipophilicity relative to human insulin (k′rel) by isocratic RP-HPLC
Type: physicochemical
Details: LiChrosorb RP18 HPLC column, isocratic elution at 40° C., pH 7.3
Description: Void time, t0, was found by injecting 0.1 mM sodium nitrate.

Question: For “(N(1-carboxytridecyl)-2-amidosuccinyl)-Phe^αB1 des(B30) human insulin [Example 6]”, which “Relative lipophilicity, k′rel” value is on record?
Answer: 140
